## Ab-14 heavy chain CDR variants: yeast mating affinities

Source: Li et al. 2023 (doi:10.1038/s41467-023-39022-2), MIT Lincoln Laboratory and A-Alpha Bio; data file from the FLAb repository.

All variants were tested on one target, the spike HR2 peptide PDVDLGDISGINAS (SARS-CoV-2).

Each scFv is VH, the linker GGGGSGGGGSGGGGS, VL, as in the parent Ab-14, and differs from it in the CDRs of the heavy chain only.
VH: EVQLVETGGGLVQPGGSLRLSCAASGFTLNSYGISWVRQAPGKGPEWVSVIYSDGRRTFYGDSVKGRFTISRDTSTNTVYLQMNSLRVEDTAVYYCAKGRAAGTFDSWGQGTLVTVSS
VL: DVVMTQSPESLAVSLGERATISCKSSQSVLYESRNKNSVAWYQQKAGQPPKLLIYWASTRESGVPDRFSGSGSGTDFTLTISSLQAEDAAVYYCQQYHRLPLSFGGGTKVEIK

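The parent was found by panning a naive human phage display library on the peptide. These sequences belong to a second round, designed from the earlier measurements on random variants of the parent. Their group label is 14H_GP_Gibbs (GP: Gaussian process model; Gibbs: Gibbs sampling; a sequence that several methods proposed may carry one label only). AlphaSeq pools MATa yeast showing the antibodies with MATalpha yeast showing the peptide. The frequency of each diploid, read from paired DNA barcodes, reflects how well the two displayed proteins bind. A regression on co-assayed BCL2-family reference pairs converts the normalised counts of each replicate to an apparent Kd. Mating was done six times.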

Positions count from residue 1 of the parent VH; T28E puts E in place of T. The read-out is the apparent dissociation constant on a log10 scale (nM): the lower, the stronger. An entry "n.d." has no value in the source: the pair was not observed among the diploids in that replicate. This suggests poor binding but is not conclusive. In the paper, a design with two or fewer of six values counts as a poor binder. Nonspecific signal, from three strains lacking the peptide, appeared in 1% of pairings of all heavy chain designs, centred on 2.08 (5% of these signals below 0.84); values are not corrected for it. Also given: how often the same scFv was detected with the empty control strains, with their mean in brackets. A sequence measured in both rounds can read differently, since the two assays cover different ranges. The parent sequence was in this pool as ten entries: three were never detected, three once, and four in most replicates, with averages from 0.34 to 2.37.

changes | log10 Kd (nM) by replicate | signal with controls
T28E/S31E/A101N/S107A | -0.33 / -0.32 / -0.22 / -0.25 / -0.09 / -0.06 | 0 of 18
T28Q/S31T/G61A/R100Q | 0.47 / 0.40 / 0.37 / 0.50 / 0.47 / 0.73 | 0 of 18
T28D/G61I/R100S/S107A | 0.08 / -0.31 / -0.19 / -0.53 / -0.16 / 0.21 | 0 of 18
T28S/G61A/R100W/A101T/S107N | -0.17 / -0.09 / -0.33 / -0.32 / -0.61 / -0.76 | 0 of 18
T28N/F59A/A101H | n.d. / n.d. / n.d. / n.d. / n.d. / n.d. | 0 of 18
T28Q/S31A/A101T | 1.80 / n.d. / 1.82 / 0.68 / 0.61 / n.d. | 0 of 18
T28D/R56Q/A101L | -0.21 / -0.60 / -0.73 / -0.34 / -0.53 / -0.46 | 0 of 18
T28H/R56M/G61S/A101Q | 2.03 / 1.04 / 1.00 / 1.26 / 1.13 / 1.10 | 1 of 18 (2.64)
T28D/S63D/A101T/S107T | 0.03 / -0.04 / -0.35 / -0.47 / -0.31 / -0.19 | 0 of 18
G26P/T28S/A101N | n.d. / n.d. / n.d. / n.d. / n.d. / n.d. | 1 of 18 (0.51)
T28D/R100Q/A101E/S107N | 0.32 / 0.00 / 0.17 / -0.29 / -0.19 / -0.12 | 0 of 18
T28S/G61I/R100H/A101Q | 0.55 / 0.39 / 0.19 / 0.47 / 0.14 / 1.03 | 0 of 18
T28Q/R100Q/S107D | n.d. / 1.89 / 2.88 / 2.12 / n.d. / n.d. | 0 of 18
T28D/R56K/G61Q/S63K/A101T | 1.24 / 0.11 / 0.97 / 0.80 / n.d. / 1.12 | 0 of 18
G26M/T28N/R100Q/A101I | 0.96 / 1.08 / 1.02 / 1.57 / 0.44 / 1.77 | 0 of 18
T28S/S31E/G61A/S63A/A101T/S107K | n.d. / n.d. / n.d. / n.d. / n.d. / n.d. | 1 of 18 (3.24)
T28W/S31D/G61H/A101I | 1.48 / 1.27 / 0.31 / 2.57 / 1.07 / 0.65 | 0 of 18
T28S/G61V/R100N/S107L | 0.31 / 0.26 / 0.08 / 1.21 / -0.12 / 0.51 | 0 of 18
T28S/R100S/A101E/S107N | n.d. / n.d. / n.d. / n.d. / n.d. / 1.55 | 0 of 18
F27E/S31E/A101T | 0.82 / 0.58 / 0.90 / 0.66 / 0.28 / 0.51 | 0 of 18
T28D/G61V/S63D/A101L | 0.42 / 0.61 / 0.75 / 0.48 / 0.31 / 0.64 | 1 of 18 (3.33)
G26M/T28S/S31E | 0.12 / 0.80 / 0.42 / 0.58 / n.d. / 0.16 | 0 of 18
T28D/F59A/R100K/S107T | 0.44 / -0.38 / -0.08 / 0.15 / 0.49 / 0.17 | 0 of 18
T28E/G61T/S63D/R100N | 1.58 / 0.36 / 0.33 / 0.18 / 0.14 / 1.22 | 0 of 18
T28S/R100M/S107T | 0.05 / 1.33 / 0.18 / 0.28 / 0.23 / 0.68 | 0 of 18
T28E/S31E/S63M/A101T/S107K | 0.27 / 0.48 / 0.48 / 1.02 / 0.54 / 0.13 | 0 of 18
T28N/G61A/S63K/R100Q/A101T | 0.58 / 0.29 / 0.47 / 0.28 / 0.87 / 0.24 | 0 of 18
T28G/S31E/S63Q/R100K/A101T | 0.19 / 0.49 / 0.24 / 0.22 / 0.69 / 0.17 | 1 of 18 (2.73)
T28Q/S31D/R100K/A101T | 0.59 / 1.23 / 0.08 / 0.46 / 0.31 / 1.00 | 0 of 18
N30E/R56M/G61V/A101T | n.d. / 2.22 / n.d. / n.d. / 1.45 / n.d. | 0 of 18
G26P/T28D/G61Q/R100E | n.d. / n.d. / n.d. / 1.76 / 2.60 / 2.75 | 0 of 18
T28Q/S31E/A101T/S107W | 0.15 / -0.44 / -0.31 / -0.03 / 0.29 / 0.07 | 1 of 18 (1.85)
T28W/S31D/G61Q/A101Q | 1.92 / 1.42 / 0.66 / 1.07 / 1.69 / 1.66 | 0 of 18
R56K/S63D/R100Q/S107T | 2.09 / 0.24 / 0.65 / 0.69 / 0.58 / 0.59 | 0 of 18
T28V/G61K/R100Q/A101T/S107T | 2.34 / 2.92 / 1.41 / 1.53 / 1.67 / 2.14 | 2 of 18 (2.07)
T28D/G61V/S63N/A101T | n.d. / n.d. / n.d. / n.d. / -0.08 / 0.01 | 0 of 18
T28Y/R100K/A101T/S107V | n.d. / 1.67 / 0.99 / 1.33 / 2.06 / n.d. | 0 of 18
S53A/S63A/A101T | 0.70 / 0.17 / 0.23 / -0.32 / 0.04 / 0.90 | 0 of 18
R56Q/G61A/S63D/R100Q/S107K | 1.08 / 1.13 / -0.08 / -0.05 / 0.64 / 0.98 | 0 of 18
G26S/T28E/S31M/R100K/A101T | n.d. / n.d. / n.d. / n.d. / n.d. / n.d. | 0 of 18
T28D/R100H/S107A | 0.16 / -0.17 / 0.37 / -0.06 / -0.09 / 0.35 | 0 of 18
T28D/G61Q/S63M/A101E | 2.88 / n.d. / 2.79 / 1.44 / 2.40 / 1.24 | 2 of 18 (2.79)
G26K/T28D/R56K/G61D/A101E | 0.39 / 0.56 / 0.08 / 0.06 / 0.13 / 0.71 | 1 of 18 (2.34)
T28S/S31D/G61M/S63W/A101T | n.d. / n.d. / n.d. / n.d. / n.d. / n.d. | 0 of 18
T28D/G61V/S107V | 1.21 / 0.72 / 0.72 / 0.64 / 0.97 / 0.94 | 0 of 18
T28D/R56M/A101T/S107E | -0.56 / -1.17 / -1.25 / -1.02 / -1.06 / 0.11 | 0 of 18
T28S/S31T/G61K/R100Q/A101T | 0.90 / 0.55 / n.d. / 1.04 / 0.71 / n.d. | 0 of 18
T28E/G61A/R100K/A101E/S107N | 0.20 / -0.16 / 0.40 / -0.18 / 0.21 / 0.26 | 0 of 18
T28H/S31T/R56M/A101T | 0.57 / 1.67 / 1.33 / n.d. / n.d. / 1.83 | 0 of 18
G26M/T28W/S31D/G61H/A101T | n.d. / 2.30 / n.d. / 2.06 / n.d. / 1.89 | 0 of 18
T28H/G61K/R100K/A101T | n.d. / 0.83 / n.d. / n.d. / n.d. / 1.37 | 0 of 18
G26K/T28S/R56K/G61S/A101T | 0.77 / 0.44 / 0.95 / 0.55 / 0.41 / 1.08 | 0 of 18

The first 3 variants above that were never detected:

{"changes": "T28N/F59A/A101H", "log10 Kd (nM) by replicate": "n.d. / n.d. / n.d. / n.d. / n.d. / n.d.", "signal with controls": "0 of 18"}
{"changes": "G26P/T28S/A101N", "log10 Kd (nM) by replicate": "n.d. / n.d. / n.d. / n.d. / n.d. / n.d.", "signal with controls": "1 of 18 (0.51)"}
{"changes": "T28S/S31E/G61A/S63A/A101T/S107K", "log10 Kd (nM) by replicate": "n.d. / n.d. / n.d. / n.d. / n.d. / n.d.", "signal with controls": "1 of 18 (3.24)"}